First the molecules themselves.
B1: RAC-alpha serine/threonine-protein kinase (Homo sapiens), P31749 (parent)
chain: MSDVAIVKEGWLHKRGEYIKTWRPRYFLLKNDGTFIGYKERPQDVDQREAPLNNFSVAQCQLMKTERPRPNTFIIRCLQWTTVIERTFHVETPEEREEWTTAIQTVADGLKKQEEEEMDFRSGSPSDNSGAEEMEVSLAKPKHRVTMNEFEYLKLLGKGTFGKVILVKEKATGRYYAMKILKKEVIVAKDEVAHTLTENRVLQNSRHPFLTALKYSFQTHDRLCFVMEYANGGELFFHLSRERVFSEDRARFYGAEIVSALDYLHSEKNVVYRDLKLENLMLDKDGHIKITDFGLCKEGIKDGATMKTFCGTPEYLAPEVLEDNDYGRAVDWWGLGVVMYEMMCGRLPFYNQDHEKLFELILMEEIRFPRTLGPEAKSLLSGLLKKDPKQRLGGGSEDAKEIMQHRFFAGIVWQHVYEKKLSPPFKPQVTSETDTRYFDEEFTAQMITITPPDQDDSMECVDSERRPHFPQFSYSASGTA
partner: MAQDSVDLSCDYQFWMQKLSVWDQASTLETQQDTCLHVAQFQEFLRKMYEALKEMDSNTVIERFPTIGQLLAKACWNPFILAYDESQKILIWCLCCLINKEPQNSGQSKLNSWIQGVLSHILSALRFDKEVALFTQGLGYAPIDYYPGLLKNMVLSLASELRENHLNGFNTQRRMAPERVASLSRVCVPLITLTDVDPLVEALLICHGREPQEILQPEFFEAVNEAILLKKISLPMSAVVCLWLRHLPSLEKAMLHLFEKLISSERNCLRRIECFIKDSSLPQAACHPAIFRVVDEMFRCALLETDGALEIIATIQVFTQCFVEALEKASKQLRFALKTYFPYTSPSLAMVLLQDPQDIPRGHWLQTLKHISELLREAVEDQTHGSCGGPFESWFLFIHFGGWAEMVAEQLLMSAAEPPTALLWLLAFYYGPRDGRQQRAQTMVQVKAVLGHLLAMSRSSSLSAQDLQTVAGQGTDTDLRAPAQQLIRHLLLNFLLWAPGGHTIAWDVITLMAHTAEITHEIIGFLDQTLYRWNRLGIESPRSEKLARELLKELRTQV
B2: RAC-alpha serine/threonine-protein kinase (Homo sapiens), P31749 (parent)
chain: B1 chain
partner: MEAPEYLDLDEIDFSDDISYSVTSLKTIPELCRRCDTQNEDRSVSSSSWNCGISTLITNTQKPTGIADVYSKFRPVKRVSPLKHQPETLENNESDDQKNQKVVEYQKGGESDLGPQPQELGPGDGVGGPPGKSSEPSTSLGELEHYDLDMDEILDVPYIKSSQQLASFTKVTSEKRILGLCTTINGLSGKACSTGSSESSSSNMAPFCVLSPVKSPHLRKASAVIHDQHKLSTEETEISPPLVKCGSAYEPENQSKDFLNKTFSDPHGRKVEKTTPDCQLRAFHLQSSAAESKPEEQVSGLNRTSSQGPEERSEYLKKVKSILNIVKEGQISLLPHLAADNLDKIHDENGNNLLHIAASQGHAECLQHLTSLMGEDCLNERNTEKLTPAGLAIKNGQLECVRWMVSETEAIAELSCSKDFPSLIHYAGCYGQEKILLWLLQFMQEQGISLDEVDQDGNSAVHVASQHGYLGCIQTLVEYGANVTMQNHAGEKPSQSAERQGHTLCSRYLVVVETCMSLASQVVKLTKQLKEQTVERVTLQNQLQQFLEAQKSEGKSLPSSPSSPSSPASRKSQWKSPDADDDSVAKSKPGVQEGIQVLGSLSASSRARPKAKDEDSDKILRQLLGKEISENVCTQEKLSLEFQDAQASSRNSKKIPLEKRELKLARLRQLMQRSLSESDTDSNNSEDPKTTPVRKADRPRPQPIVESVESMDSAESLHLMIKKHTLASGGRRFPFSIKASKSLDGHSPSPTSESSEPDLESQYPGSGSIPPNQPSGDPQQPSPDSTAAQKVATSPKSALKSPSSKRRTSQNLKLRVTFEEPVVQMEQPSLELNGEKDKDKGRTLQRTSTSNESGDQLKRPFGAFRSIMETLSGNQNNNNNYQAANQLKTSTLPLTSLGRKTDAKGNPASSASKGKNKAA
B3: RAC-alpha serine/threonine-protein kinase (Homo sapiens), P31749 (parent)
chain: B1 chain
partner: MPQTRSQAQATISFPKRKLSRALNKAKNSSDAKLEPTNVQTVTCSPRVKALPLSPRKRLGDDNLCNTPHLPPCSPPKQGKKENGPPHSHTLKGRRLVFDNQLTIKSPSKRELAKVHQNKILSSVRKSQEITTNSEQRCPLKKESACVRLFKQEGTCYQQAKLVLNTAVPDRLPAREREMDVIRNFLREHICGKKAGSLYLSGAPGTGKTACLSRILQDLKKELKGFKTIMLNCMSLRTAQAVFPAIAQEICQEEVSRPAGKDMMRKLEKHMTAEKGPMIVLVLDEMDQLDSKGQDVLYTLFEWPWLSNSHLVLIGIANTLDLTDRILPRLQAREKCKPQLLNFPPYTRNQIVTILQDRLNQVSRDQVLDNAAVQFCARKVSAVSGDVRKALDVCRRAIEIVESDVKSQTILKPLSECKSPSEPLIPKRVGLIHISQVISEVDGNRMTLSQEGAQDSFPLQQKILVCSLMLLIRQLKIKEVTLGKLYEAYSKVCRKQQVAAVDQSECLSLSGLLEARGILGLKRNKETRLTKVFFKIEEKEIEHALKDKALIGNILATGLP
B4: RAC-alpha serine/threonine-protein kinase (Homo sapiens), P31749 (parent)
chain: B1 chain
partner: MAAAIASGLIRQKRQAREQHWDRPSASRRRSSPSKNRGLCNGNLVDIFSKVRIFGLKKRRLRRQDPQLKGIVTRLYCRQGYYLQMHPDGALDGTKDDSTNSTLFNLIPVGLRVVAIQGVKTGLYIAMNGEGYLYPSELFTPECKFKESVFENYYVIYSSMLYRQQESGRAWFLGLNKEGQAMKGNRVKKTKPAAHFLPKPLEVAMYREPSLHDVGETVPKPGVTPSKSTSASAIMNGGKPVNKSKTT

Variants of B1 are the subject of the first assay. Particulars: with fancc_human FANCC.
E17K: the “effect of a mutation on the interaction” value is “causing an interaction”.

Another assay covers variants of B1. Particulars: with fancc_human FANCC. The source holds these as a separate data set.
Turning to E17K, the “effect of a mutation on the interaction” value was “increasing interaction strength”.

The next assay covers variants of B2. Particulars: with sncap_human SNCAIP.
Consider E17K, for which the “effect of a mutation on the interaction” value is “causing an interaction”.

The next assay covers variants of B3. Particulars: with cdc6_human CDC6, Q99741.
Regarding E17K, the “effect of a mutation on the interaction” value is recorded as “with no effect”.

The next assay covers variants of B4. Particulars: with fgf14_human FGF14, Q92915.
Turning to E17K, the “effect of a mutation on the interaction” value was “with no effect”.

For the origin of these results see IntAct's records for PubMed 35512704.
